Values quoted from earlier work in US20220106275A1, “RADIOLABELED COMPOUNDS AND USES THEREOF” (The Trustees of Columbia University in the City of New York, priority 2019, published 2022).

Tested on: COX-2 positive cells (HCA-7)
Conditions: cited from earlier work

CS(=O)(=O)c1ccc(-c2cc(C(F)(F)F)nc(NCc3ccc([18F])cc3)n2)cc1 [[^18F]Pyricoxib]
binding in COX-2 positive cells (HCA-7) compared with COX-2 negative cells (HCT-116): higher binding
